Experimental findings from patent publication US8575156B2, “Cyclic inhibitors of 11β-hydroxysteroid dehydrogenase 1” (Vitae Pharmaceuticals, Inc., priority 2007, dated 2013) are described below.

Protein sequences, listed by entry. Tags and fused reporters are not part of them. Lines headed by an entry give the natural chain unless they say otherwise; changes in a name come on top.
UniProt P28845: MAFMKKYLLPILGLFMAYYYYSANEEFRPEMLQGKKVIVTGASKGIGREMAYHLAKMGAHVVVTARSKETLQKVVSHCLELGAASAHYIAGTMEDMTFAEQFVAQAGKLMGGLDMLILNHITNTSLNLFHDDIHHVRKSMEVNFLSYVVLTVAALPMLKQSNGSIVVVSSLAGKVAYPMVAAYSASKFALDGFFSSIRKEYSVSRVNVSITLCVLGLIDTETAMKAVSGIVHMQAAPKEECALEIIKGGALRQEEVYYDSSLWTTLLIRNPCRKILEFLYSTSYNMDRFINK

Like-named read-outs stand apart in the source and are kept apart here.

Assay [1] has as its target T1, 11β-HSD1 (Homo sapiens, UniProt P28845). Description: biochemical. Conditions: for IC50: IC50 Range; for inhibition at 0.1111 µM: read-out: Average % inhibition at 111.1 nM; for inhibition at 0.1 µM: read-out: Average % inhibition at 100 nM.
Assay [2] addresses T1, 11β-HSD1.
[3] abbreviates: Biological Test Example 1, microsomes from CHO cells overexpressing human 11β-HSD1.

As for `CC1(c2ccccc2)CCN(c2ccnc(-c3cccc(Cl)c3)n2)C(=O)O1` (centres unmarked), in assay [1], the IC50 (as a rule, the concentration needed to halve the response being measured) lay within 100 to 1000 nM and the inhibition (in general, the share of the control response that was lost under treatment) at 0.1111 µM is 15.5%.
For `C=CC[C@]1(c2ccc(F)cc2)CCN([C@@H](C)C2CCCCC2)C(=O)O1` (single isomer, unassigned) [EXAMPLE 120 Isomer 1], the IC50 in assay [1] is less than 100 nM.
On the same count and under the same terms, next, `C=CC[C@@]1(c2ccc(F)cc2)CCN([C@@H](C)C2CCCCC2)C(=O)O1` (single isomer, unassigned) [EXAMPLE 120 Isomer 2]: less than 100 nM.
Regarding `CC(O)C[C@]1(c2ccc(F)cc2)CCN([C@@H](C)c2ccc(-c3ccc(F)cc3F)cc2)C(=O)O1` (single isomer, unassigned) [EXAMPLE 137 Isomer 1], in assay [1], the inhibition at 0.1111 µM stood at 96.7%.
As for `CC(O)C[C@]1(c2ccc(F)cc2)CCN([C@@H](C)c2ccc(-c3ccc(F)cc3F)cc2)C(=O)O1` (single isomer, unassigned) [EXAMPLE 137 Isomer 2], in assay [2] (0.1111 µM), the “Average % inhibition at 111.1 nM” value is on record as 95.5%. The inhibition at 0.1 µM in assay [1] turned out to be 96.4%.
As for `C=CCC1(c2ccc(F)cc2)CCN([C@@H](C)c2ccc(OC)cc2)C(=O)O1` (single isomer, unassigned) [EXAMPLE 193 Isomer 1], in assay [1], the inhibition at 0.1 µM came out at 95.6%.
Take `C=CCC1(c2ccc(F)cc2)CCN([C@@H](C)c2ccc(OC)cc2)C(=O)O1` (single isomer, unassigned) [EXAMPLE 193 Isomer 2]: the “Average % inhibition at 100 nM” value in assay [2] (0.1 µM) was determined as 94.3%.
As for `C=CC[C@]1(c2ccc(F)cc2)CCN(Cc2ccccc2CN2CCN(C)CC2)C(=O)O1` (stereo in doubt), the IC50 in assay [1] was less than 100 nM.
For `COCC[C@]1(c2ccc(F)cc2)CCN([C@@H](C)c2ccc(-c3ccc(F)cc3F)cc2)C(=O)O1` [EXAMPLE 140, (S)-3-((S)-1-(2′,4′-difluorobiphenyl-4-yl)ethyl)-6-(4-fluorophenyl)-6-(2-methoxyethyl)-1,3-oxazinan-2-one], the IC50 in assay [1] was less than 100 nM.
As to `C[C@@H](c1ccc(CO)cc1)N1CC[C@](CCCO)(c2ccccc2)OC1=O` [EXAMPLE 194, (R)-3-((S)-1-(4-(hydroxymethyl)phenyl)ethyl)-6-(3-hydroxypropyl)-6-phenyl-1,3-oxazinan-2-one], the IC50 in assay [1] (setting [3]) is less than 100 nM.
Same read-out and setting: then `C[C@@H](c1ccc(CCO)cc1)N1CC[C@](CCCO)(c2ccccc2)OC1=O` [EXAMPLE 198, (R)-3-((S)-1-(4-(2-hydroxyethyl)phenyl)ethyl)-6-(3-hydroxypropyl)-6-phenyl-1,3-oxazinan-2-one], with less than 100 nM; and `C[C@@H](c1ccc(C(C)(C)O)cc1)N1CC[C@](CCCO)(c2ccccc2)OC1=O` [EXAMPLE 280, (R)-3-((S)-1-(4-(2-hydroxypropan-2-yl)phenyl)ethyl)-6-(3-hydroxypropyl)-6-phenyl-1,3-oxazinan-2-one], with less than 100 nM.
On the same count and under the same terms, then `C[C@@H](c1ccc(Br)cc1)N1CC[C@](CCCN2CCCC2=O)(c2ccccc2)OC1=O` [EXAMPLE 509, (R)-3-((S)-1-(4-bromophenyl)ethyl)-6-(3-(2-oxopyrrolidin-1-yl)propyl)-6-phenyl-1,3-oxazinan-2-one], with less than 100 nM.
On the same count and under the same terms, then `C[C@@H](c1ccc(Br)cc1)N1CC[C@](CCCN2CCCS2(=O)=O)(c2ccccc2)OC1=O` [EXAMPLE 516, (R)-3-((S)-1-(4-bromophenyl)ethyl)-6-(3-(1,1-dioxo-isothiazolidin-2-yl)propyl)-6-phenyl-1,3-oxazinan-2-one], with less than 100 nM.
Consider “(S)-3-((S)-1-(2′,4′-difluorobiphenyl-4-yl)propyl)-6-(4-fluorophenyl)-6-(2-hydroxyethyl)-1,3-oxazinan-2-one [EXAMPLE 175 Isomer 1]”, for which, in assay [2], the “Average % inhibition at 100 nM” value stood at 94.3%.
